Here are results for 1 compound from ChEMBL document CHEMBL3870325 (Bioorg Med Chem, 2017).

For this test, the species on record is Homo sapiens. Nature of the test: Selectivity ratio of IC50 for HER2 (unknown origin) to IC50 for wild-type EGFR (unknown origin).

Consider `O=C(CCCCCn1cc(-c2ccc3ncnc(Nc4ccc(OCc5cccc(F)c5)c(Cl)c4)c3c2)nn1)NO`, for which the Ratio IC50 was greater than 100.
